The record followed here is patent EP2698367A1, “Benzimidazoles for the treatment of cancer” (Max-Planck-Gesellschaft zur Förderung der Wissenschaften …, priority 2012, dated 2014).

By UniProt entry, the sequences of proteins in these tests, tags left out. Where a name states a change or a piece, a line headed by the entry shows the natural chain unless it says otherwise.
UniProt O43924: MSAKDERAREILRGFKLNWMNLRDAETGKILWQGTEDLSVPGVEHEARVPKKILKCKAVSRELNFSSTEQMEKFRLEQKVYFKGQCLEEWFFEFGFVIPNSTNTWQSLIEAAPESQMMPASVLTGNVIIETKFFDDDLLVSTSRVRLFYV

The test concerns the target PDEδ farnesyl pocket (Homo sapiens, UniProt O43924). Put plainly: Displacement titrations of labeled probe (fluorescence polarization) for the determination of KD values. The format is binding. An excerpt:
The resulting solution was serially diluted, holding the concentrations of S54, PDEδ and DMSO constant. The sealed plates were shaken overnight at room temperature and centrifuged at the beginning of the next day. […] For the fitting of the data to a competition model the exact mathematical solution derived from the law of mass action was used as described by Roehrl et al.^3 Fraction bound data was fit using KD2 as the only fitting parameter and total ligand concentration as independent variable (OriginPro8.6, function codec from origin). [formula] • FSB: Fraction bound of fluorescent probe • KD1: Binding constant of fluorescent Probe determined from direct titration • KD2: Fitting parameter (Binding constant of unlabeld competitor) • LST: Total concentration of unlabeld small molecule competitor • RT: Total protein concentration
For the fitting of data to a competition model with cooperative binding of two benzimidazole fragments the program Scientist 3.0 was used. An experimental system was defined as a series of partial equations including the equilibrium relationships between the various species. Anisotropy data was converted to fraction bound and fitting was carried out in anlogy to a previously described set of equilibrium relationships by Goody and coworkers.^4. KD1 = ([A][PDEDf])/([APDED]) [formula] […]
Background: Fluorescence polarisation rises when a labelled molecule tumbles more slowly, as on binding a larger partner.

Usually Kd stands for a measure of binding affinity in units of concentration. Low values mean tighter binding, high ones weaker binding.

Regarding `c1ccc(Cn2c(-c3ccc(OC[C@H](C4CCNCC4)n4c(-c5ccccc5)nc5ccccc54)cc3)nc3ccccc32)cc1` [(S)-9, (S)-1-Benzyl-2-(4-(2-(2-phenyl-1H-benzo[d]imidazol-1-yl)-2-(piperidin-4-yl)ethoxy)phenyl)-1H-benzo[d]imidazole], the Kd fell in the range of 0.025 to 0.1 µM.

Take `c1ccc(Cn2c(-c3ccc(OC[C@@H](C4CCNCC4)n4c(-c5ccccc5)nc5ccccc54)cc3)nc3ccccc32)cc1` [(R)-9, (R)-1-Benzyl-2-(4-(2-(2-phenyl-1H-benzo[d]imidazol-1-yl)-2-(piperidin-4-yl)ethoxy)phenyl)-1H-benzo[d]imidazole]: the dissociation constant Kd is 0.1 to 1 µM.
